ChEMBL document CHEMBL4007424, “Design and Synthesis of Enantiomerically Pure Decahydroquinoxalines as Potent and Selective κ-Opioid Receptor Agonists with Anti-Inflammatory Activity in Vivo” (J Med Chem, 2017)

Protein sequences, listed by entry. Tags and fused reporters are not part of them. Lines headed by an entry give the natural chain unless they say otherwise; changes in a name come on top.
UniProt Q60492, whole entry, looked up: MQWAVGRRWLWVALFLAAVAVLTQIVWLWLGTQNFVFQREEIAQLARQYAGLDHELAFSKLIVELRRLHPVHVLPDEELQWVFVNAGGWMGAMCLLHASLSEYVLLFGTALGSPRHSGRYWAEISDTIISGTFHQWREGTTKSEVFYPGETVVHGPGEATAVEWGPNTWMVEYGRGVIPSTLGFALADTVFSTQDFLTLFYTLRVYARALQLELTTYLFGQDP
UniProt P41145: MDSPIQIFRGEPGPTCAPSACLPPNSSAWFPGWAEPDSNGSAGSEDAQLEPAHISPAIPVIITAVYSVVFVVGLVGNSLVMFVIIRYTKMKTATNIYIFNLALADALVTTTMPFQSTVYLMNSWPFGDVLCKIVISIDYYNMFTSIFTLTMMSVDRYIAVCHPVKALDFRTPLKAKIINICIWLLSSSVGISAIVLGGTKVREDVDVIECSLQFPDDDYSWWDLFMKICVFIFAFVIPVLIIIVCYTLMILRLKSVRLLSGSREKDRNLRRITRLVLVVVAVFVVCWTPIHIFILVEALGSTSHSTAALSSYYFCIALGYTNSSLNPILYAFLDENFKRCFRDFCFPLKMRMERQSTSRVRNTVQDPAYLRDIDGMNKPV

Legend:
[1] = target: Sigma non-opioid intracellular receptor 1 (Cavia porcellus) (UniProt Q60492); test: Displacement of [3H]-(+)-pentazocine from sigma1-type […] receptor in guinea pig cortex membranes at 1 uM after 120 mins by solid scintillation counting; format: cell membranes
[2] = target: Kappa-type opioid receptor (Homo sapiens, UniProt P41145); test: Agonist activity at recombinant human kappa-type opioid receptor expressed in HEK293 cells at 1 uM after 30 mins by [35S]GTPgammaS binding assay; format: functional, cell-based

SMILES	inhibition [1]	Activity [2]
O=C(Cc1ccc(Cl)c(Cl)c1)N1CCN[C@H]2CCC[C@H](N3CCCC3)[C@H]21	6%	89%
COC(=O)N1CCN(C(=O)Cc2ccc(Cl)c(Cl)c2)[C@@H]2[C@@H](N3CCCC3)CCC[C@@H]21	0%	
CN(C(=O)Cc1ccccc1)[C@H]1CC[C@@]2(CCCO2)C[C@@H]1N1CCCC1		100%
